Only a part is listed here, and it is no random draw. Inconclusive results are not listed. Some structures have more than one record in an assay (separate samples or runs), and their calls can disagree. Activity calls are given as the source filed them. Rule for the calls: active = hit-call score of the fitted dose curve at least 0.9, where 1 is the maximum; inconclusive = response in the unintended direction; inactive = score below 0.9.
What was measured:
[1] = biological target: human Vascular Endothelial Growth Factor Receptor 1 (VEGFR1), FLT1 (gene 2321) (UniProt P17948); assay: NVS_ENZ_hVEGFR1: NovaScreen (NVS) Enzymatic Assay for human Vascular Endothelial Growth Factor Receptor 1 (VEGFR1) (AID 2283226)
Method in brief: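 Kinase activity of recombinant human VEGFR1 was read by fluorescence after electrophoretic separation of product from substrate, 1 h post-dosing; initial duplicate single-point testing at 25 uM, followed by concentration-series follow-up, with DMSO as baseline.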

The chains behind the UniProt entries cited, without tags or fusion partners. Where a name states a change or a piece, a line headed by the entry shows the natural chain unless it says otherwise.
UniProt P17948, whole entry, looked up: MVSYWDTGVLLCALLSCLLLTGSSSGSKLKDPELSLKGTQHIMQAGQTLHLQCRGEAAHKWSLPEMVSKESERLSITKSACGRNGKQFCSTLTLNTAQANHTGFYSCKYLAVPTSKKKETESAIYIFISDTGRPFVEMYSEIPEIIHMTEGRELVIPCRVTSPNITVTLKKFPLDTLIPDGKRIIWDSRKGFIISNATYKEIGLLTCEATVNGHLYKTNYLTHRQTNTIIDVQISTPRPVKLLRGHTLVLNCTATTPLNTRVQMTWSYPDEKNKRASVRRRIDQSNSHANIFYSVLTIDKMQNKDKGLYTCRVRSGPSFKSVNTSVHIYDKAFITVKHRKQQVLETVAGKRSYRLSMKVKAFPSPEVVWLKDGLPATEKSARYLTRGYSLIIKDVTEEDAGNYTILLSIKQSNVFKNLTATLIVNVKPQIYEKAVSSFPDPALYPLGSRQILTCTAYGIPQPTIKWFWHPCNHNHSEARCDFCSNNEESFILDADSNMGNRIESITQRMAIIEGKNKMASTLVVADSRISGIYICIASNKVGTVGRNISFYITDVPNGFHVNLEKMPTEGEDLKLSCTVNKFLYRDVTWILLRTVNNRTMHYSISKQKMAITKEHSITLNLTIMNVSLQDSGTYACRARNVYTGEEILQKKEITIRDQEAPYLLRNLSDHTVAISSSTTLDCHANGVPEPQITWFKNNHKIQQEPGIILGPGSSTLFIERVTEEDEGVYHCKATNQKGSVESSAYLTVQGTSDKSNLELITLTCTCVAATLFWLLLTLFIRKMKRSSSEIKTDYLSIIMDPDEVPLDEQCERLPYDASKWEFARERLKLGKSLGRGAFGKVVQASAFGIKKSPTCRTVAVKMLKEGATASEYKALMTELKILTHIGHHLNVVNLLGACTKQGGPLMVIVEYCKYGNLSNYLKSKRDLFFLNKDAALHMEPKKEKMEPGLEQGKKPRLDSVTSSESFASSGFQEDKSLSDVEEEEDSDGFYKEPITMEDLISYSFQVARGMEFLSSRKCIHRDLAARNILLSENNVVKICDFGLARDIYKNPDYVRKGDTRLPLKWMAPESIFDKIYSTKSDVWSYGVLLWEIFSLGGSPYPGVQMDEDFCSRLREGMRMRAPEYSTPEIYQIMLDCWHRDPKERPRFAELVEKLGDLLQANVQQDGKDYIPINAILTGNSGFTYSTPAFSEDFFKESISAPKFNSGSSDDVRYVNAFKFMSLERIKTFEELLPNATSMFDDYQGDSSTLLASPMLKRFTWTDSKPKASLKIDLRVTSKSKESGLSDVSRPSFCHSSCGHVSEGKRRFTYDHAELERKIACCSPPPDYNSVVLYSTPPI
UniProt P35916, whole entry, looked up: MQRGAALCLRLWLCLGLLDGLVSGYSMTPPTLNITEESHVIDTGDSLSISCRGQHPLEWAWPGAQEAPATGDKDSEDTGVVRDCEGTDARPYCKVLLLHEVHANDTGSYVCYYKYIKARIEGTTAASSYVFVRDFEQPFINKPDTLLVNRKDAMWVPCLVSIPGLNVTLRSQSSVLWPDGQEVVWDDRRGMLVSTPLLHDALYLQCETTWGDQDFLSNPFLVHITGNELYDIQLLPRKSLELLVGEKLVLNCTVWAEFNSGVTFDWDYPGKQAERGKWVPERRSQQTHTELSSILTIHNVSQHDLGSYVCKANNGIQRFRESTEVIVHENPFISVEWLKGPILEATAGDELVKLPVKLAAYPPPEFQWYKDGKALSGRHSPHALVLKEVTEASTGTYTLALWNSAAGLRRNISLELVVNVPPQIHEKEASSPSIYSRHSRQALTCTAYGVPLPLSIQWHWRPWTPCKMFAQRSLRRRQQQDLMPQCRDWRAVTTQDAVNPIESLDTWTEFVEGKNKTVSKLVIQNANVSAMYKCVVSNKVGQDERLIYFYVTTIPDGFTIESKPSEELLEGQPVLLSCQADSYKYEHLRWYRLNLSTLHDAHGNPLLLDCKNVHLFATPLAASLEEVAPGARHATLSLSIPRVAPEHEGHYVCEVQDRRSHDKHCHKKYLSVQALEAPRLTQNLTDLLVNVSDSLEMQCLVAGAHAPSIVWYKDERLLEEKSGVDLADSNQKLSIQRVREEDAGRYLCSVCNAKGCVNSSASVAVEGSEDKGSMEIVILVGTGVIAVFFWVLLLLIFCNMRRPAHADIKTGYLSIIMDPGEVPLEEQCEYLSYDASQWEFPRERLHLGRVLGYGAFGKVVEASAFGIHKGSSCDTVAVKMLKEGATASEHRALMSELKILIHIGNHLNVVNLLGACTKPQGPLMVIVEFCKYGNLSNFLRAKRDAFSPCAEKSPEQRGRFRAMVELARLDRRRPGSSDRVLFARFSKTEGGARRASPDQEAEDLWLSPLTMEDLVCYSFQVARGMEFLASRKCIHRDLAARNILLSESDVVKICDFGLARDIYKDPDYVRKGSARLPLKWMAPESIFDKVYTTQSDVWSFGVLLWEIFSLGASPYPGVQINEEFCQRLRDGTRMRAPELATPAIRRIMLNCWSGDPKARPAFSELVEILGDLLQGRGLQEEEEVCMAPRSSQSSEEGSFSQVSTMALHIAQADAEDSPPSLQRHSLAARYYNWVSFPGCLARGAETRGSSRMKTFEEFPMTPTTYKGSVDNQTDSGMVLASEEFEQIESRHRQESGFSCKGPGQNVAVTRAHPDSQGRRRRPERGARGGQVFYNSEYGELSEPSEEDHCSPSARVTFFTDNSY
UniProt P19643, whole entry, looked up: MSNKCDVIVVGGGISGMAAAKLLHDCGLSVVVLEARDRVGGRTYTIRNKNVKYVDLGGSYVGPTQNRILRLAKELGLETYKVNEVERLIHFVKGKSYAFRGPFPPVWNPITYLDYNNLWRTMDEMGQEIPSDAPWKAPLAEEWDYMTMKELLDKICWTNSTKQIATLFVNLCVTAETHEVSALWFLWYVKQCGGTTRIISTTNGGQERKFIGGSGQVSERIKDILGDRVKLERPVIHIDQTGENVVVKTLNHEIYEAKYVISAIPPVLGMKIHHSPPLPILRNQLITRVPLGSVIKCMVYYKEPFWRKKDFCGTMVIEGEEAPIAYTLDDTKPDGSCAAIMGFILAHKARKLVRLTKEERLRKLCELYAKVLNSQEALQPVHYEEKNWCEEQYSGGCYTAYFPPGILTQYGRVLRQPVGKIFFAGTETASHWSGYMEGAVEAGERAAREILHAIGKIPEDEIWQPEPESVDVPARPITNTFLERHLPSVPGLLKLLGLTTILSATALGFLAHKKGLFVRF
UniProt P28223, whole entry, looked up: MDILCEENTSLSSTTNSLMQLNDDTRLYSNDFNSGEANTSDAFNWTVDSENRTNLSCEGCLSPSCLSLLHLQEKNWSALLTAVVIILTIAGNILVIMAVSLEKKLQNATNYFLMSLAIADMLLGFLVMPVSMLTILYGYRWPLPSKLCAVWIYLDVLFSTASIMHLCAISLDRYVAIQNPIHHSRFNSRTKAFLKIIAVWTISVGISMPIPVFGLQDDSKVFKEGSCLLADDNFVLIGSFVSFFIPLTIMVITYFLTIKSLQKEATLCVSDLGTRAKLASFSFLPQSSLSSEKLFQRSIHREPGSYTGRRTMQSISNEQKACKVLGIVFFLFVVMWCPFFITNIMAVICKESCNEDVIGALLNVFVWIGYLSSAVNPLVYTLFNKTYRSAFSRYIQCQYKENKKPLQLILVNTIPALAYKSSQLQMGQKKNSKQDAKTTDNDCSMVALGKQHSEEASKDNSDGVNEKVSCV
UniProt Q9NTG7: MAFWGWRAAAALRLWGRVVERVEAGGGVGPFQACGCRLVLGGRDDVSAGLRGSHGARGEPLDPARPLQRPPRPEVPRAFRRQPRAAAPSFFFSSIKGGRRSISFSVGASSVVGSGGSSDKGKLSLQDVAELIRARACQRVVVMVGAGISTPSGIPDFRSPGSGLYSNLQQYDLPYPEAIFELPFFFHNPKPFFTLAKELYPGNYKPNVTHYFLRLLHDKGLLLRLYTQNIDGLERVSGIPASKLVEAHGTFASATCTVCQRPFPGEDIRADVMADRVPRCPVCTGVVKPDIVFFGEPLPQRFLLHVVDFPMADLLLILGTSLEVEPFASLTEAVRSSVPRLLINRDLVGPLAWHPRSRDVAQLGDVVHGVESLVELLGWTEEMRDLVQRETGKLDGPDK
UniProt Q02763: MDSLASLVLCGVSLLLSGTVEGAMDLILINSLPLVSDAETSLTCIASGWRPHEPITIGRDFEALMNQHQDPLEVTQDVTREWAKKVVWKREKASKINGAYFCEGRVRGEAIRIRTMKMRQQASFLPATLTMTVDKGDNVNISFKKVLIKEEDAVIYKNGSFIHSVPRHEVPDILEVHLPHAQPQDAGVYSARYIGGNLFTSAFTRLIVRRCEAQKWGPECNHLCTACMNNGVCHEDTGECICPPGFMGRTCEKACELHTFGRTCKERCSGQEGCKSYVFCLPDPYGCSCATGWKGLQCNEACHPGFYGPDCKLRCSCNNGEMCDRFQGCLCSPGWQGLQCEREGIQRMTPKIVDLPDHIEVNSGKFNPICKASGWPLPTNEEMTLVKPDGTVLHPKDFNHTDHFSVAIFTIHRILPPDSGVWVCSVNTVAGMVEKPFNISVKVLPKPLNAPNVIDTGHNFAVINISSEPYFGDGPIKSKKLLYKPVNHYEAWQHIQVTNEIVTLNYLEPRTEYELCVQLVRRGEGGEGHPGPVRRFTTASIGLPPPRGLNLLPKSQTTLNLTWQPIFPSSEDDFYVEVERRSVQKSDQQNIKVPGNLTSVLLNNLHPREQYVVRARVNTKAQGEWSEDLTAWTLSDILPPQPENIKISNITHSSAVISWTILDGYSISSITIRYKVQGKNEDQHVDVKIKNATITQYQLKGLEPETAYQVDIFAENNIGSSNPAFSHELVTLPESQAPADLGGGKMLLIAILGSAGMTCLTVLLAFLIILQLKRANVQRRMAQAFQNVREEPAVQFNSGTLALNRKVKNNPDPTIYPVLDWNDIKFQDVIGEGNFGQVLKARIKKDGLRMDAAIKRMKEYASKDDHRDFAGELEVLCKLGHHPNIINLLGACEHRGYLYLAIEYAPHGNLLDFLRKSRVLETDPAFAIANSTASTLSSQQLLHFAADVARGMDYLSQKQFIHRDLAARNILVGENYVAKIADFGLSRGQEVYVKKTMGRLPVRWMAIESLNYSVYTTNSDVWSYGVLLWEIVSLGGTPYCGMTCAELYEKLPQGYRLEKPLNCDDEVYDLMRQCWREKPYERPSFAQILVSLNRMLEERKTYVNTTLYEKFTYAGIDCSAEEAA
UniProt Q2NNR5: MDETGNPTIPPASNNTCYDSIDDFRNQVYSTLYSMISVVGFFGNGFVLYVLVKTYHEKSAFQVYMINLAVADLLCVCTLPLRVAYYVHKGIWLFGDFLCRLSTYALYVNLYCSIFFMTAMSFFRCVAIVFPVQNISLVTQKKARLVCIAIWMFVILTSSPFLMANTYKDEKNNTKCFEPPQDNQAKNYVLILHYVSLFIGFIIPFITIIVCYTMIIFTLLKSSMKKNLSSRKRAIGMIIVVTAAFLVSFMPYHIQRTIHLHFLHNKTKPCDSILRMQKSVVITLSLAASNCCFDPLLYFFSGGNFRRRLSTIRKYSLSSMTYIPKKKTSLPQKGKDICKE
UniProt P47898, whole entry, looked up: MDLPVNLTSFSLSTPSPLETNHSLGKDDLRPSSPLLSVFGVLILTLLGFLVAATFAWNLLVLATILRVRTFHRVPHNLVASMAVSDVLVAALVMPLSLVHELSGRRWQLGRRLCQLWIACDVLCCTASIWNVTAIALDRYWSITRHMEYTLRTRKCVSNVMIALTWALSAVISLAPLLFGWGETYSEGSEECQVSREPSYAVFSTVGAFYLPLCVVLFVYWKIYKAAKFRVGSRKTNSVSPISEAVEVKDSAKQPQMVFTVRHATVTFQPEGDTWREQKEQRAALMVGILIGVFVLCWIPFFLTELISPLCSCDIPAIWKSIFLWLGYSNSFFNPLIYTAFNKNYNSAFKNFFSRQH
UniProt P05979, whole entry, looked up: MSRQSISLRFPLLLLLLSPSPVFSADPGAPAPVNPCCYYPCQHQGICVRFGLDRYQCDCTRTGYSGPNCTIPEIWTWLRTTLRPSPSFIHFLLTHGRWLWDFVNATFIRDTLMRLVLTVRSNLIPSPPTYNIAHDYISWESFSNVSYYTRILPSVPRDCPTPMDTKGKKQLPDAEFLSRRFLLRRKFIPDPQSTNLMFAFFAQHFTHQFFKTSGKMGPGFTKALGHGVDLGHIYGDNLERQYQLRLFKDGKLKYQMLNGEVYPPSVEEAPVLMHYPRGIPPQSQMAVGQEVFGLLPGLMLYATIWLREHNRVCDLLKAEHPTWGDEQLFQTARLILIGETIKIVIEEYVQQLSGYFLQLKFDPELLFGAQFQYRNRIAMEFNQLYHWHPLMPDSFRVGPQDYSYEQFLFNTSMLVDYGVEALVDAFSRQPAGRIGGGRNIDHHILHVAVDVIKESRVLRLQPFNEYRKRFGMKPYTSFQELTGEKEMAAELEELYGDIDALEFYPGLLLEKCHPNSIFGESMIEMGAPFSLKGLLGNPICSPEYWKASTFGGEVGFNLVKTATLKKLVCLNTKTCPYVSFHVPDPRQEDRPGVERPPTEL

[2] = biological target: human Vascular Endothelial Growth Factor Receptor 3 (VEGFR3), FLT4 (gene 2324) (UniProt P35916); assay: NVS_ENZ_hVEGFR3: NovaScreen (NVS) Enzymatic Assay for human Vascular Endothelial Growth Factor Receptor 3 (VEGFR3) (AID 2283229)
Method in brief: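 Chemicals first run in duplicate at 25 uM, with actives re-tested in concentration series to a top of 50 uM. Recombinant VEGFR3 activity measured after 1 h via fluorescence with mobility-shift product separation; inhibition fitted relative to DMSO.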

[3] = biological target: rat Monoamine Oxidase, MAO-B, Peripheral (MAOBP), Maob (gene 25750) (UniProt P19643); assay: NVS_ENZ_rMAOBP: NovaScreen (NVS) Enzymatic Assay for rat Monoamine Oxidase, MAO-B, Peripheral (MAOBP) (AID 2283242)
[4] = biological target: human Serotonin, 5-Hydroxytryptamine Receptor 2A (5HT2A), HTR2A (gene 3356) (UniProt P28223); assay: NVS_GPCR_h5HT2A: NovaScreen (NVS) G Protein-Coupled Receptor Assay for human Serotonin, 5-Hydroxytryptamine Receptor 2A (5HT2A) (AID 2283249)
Method in brief: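 Radioligand displacement on human cortex tissue extract, counted by filtration and scintillation 1.5 h post-dosing. Initial single-concentration screen at 25 uM in duplicate, concentration series in follow-up; DMSO as baseline.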

[5] = biological target: human Sirtuin 3 (SIRT3), SIRT3 (gene 23410) (UniProt Q9NTG7); assay: NVS_ENZ_hSIRT3: NovaScreen (NVS) Enzymatic Assay for human Sirtuin 3 (SIRT3) (AID 2283222)
Protocol: NVS_ENZ_hSIRT3 is a biochemical, single-readout assay that uses extracted gene-proteins in a cell-free assay. Measurements were taken 1 hour after chemical dosing in a 384-well plate.NVS_ENZ_hSIRT3 is one of one assay component(s) measured or calculated from the NVS_ENZ_hSIRT3 assay. It is designed to make measurements of enzyme activity, a form of enzyme reporter, as detected with fluorescence intensity signals by Fluorescence and electrophoretic mobility shift technology.Data from the assay component NVS_ENZ_hSIRT3 was analyzed into 1 assay endpoint. This assay endpoint, NVS_ENZ_hSIRT3, was analyzed in the positive analysis fitting direction relative to DMSO as the negative control and baseline of activity. Using a type of enzyme reporter, loss-of-signal activity can be used to understand changes in the enzymatic activity as they relate to the gene SIRT3. Furthermore, this assay endpoint can be referred to as a primary readout, because this assay has produced multiple assay endpoints where this one serves a enzymatic activity function. To generalize the intended target to other relatable targets, this assay endpoint is annotated to the hydrolase intended target family, where the subfamily is protein deacetylase. […]

[6] = biological target: human Tyrosine Protein Kinase Receptor Tie-2 (Tie2), TEK (gene 7010) (UniProt Q02763); assay: NVS_ENZ_hTie2: NovaScreen (NVS) Enzymatic Assay for human Tyrosine Protein Kinase Receptor Tie-2 (Tie2) (AID 2283225)
Method in brief: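 Substrate and product were separated by mobility shift and detected by fluorescence after a 1-hour reaction with recombinant Tie2. Chemicals passing a 25 uM single-point screen were titrated to a maximum of 50 uM. Results were normalized to DMSO baseline.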

[7] = biological target: Adenosine receptor A1 (Bos taurus) (UniProt P28190); assay: NVS_GPCR_bAdoR_NonSelective: NovaScreen (NVS) G Protein-Coupled Receptor Assay for bovine Adenosine Receptor (AdoR), Non-selective Binding (AID 2283244)
Method in brief: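 Cell-free binding with membranes from bovine striatum: radioligand displaced by test chemical, read after 1 h by filtration and scintillation. Single-point 25 uM duplicate primary, 50 uM top concentration in follow-up curves, DMSO baseline.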

[8] = biological target: guinea pig Leukotriene D4 Receptor (LTD4), CYSLTR1 (gene 100135514) (UniProt Q2NNR5); assay: NVS_GPCR_gLTD4: NovaScreen (NVS) G Protein-Coupled Receptor Assay for guinea pig Leukotriene D4 Receptor (LTD4) (AID 2283248)
Method in brief: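 Guinea pig lung membrane preparation; bound radioligand measured by filter scintillation after 1 h, loss of signal versus DMSO marking displacement. Compounds tested at 25 uM in duplicate, hits retested to max 50 uM.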

[9] = biological target: human Serotonin, 5-Hydroxytryptamine Receptor 5A (5HT5A), HTR5A (gene 3361) (UniProt P47898); assay: NVS_GPCR_h5HT5A: NovaScreen (NVS) G Protein-Coupled Receptor Assay for human Serotonin, 5-Hydroxytryptamine Receptor 5A (5HT5A) (AID 2283251)
Method in brief: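 Membranes from HEK293 cells, radioligand binding read by filtration and scintillation after 1 h. Single-concentration duplicate testing at 25 uM, then concentration-response for actives; positive-direction fitting relative to DMSO.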

[10] = biological target: sheep Cyclooxygenase-1 (Cox1), PTGS1 (gene 443551) (UniProt P05979); assay: NVS_ENZ_oCOX1: NovaScreen (NVS) Enzymatic Assay for sheep Cyclooxygenase-1 (Cox1) (AID 2283239);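 note: actives reduce cyclooxygenase activity so potencies are for inhibitors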
Method in brief: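 Native ovine seminal vesicle protein serves as enzyme source in this biochemical assay. Colorimetric signal is recorded 0.66 h after chemical addition, and decreases versus the DMSO control define activity.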

Cc1cc([N+](=O)[O-])cc([N+](=O)[O-])c1O
outcome [1]: inactive
outcome [2]: inactive
outcome [3]: inactive

O=C1C2CC=CCC2C(=O)N1SC(Cl)(Cl)C(Cl)Cl (stereo not drawn)
outcome [4]: inactive

CC(C)OP(=S)(OC(C)C)SCCNS(=O)(=O)c1ccccc1
AC50 [5]: active: 17.1 µM
outcome [5]: inactive
outcome [6]: inactive
outcome [1]: inactive
outcome [7]: inactive
outcome [8]: inactive
AC50 [9]: active: 4.96 µM
outcome [9]: inactive

CN(C(=O)Cc1cccc2occc12)[C@H]1CC[C@@]2(CCCO2)C[C@@H]1N1CCCC1
outcome [10]: inactive

From PubChem BioAssay (EPA / NIEHS)
